{"sequences": {"note": "Chains of the proteins cited; added tags and fusions are not shown.", "UniProt P35462, whole entry": "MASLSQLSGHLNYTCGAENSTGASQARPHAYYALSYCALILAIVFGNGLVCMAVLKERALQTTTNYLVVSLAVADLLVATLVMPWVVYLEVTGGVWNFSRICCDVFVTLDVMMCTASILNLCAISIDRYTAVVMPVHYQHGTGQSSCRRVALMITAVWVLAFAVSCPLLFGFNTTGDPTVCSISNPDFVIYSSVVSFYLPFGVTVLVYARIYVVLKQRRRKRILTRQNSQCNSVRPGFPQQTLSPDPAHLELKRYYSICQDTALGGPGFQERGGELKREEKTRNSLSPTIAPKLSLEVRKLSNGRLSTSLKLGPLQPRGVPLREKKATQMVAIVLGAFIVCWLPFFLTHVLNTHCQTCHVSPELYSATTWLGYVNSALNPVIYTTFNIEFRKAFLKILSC"}, "source": "patent US10239870B2", "about": "“Dopamine D3 receptor antagonists” (priority 2014, dated 2019)", "data": [{"target": "T1, hD3 recombinant receptor (human dopamine type 3 receptor, CHO-hD3 membranes) (Homo sapiens (Human), UniProt P35462)", "assay": "biochemical", "conditions": "D3 pKi, displacement of 0.3 nM [3H]-Spiperone; pKi accurate to about ±0.3-0.5", "units": {"Ki": "nM"}, "values": [{"smiles": "Cc1cnc(-c2nnc(SCCCN3CC[C@]4(CC4c4ccc(C(F)(F)F)cc4)C3)n2C)cn1", "note": "(stereo partly drawn) [Example 223, (1R,3S/1S,3R)-5-(3-{[4-methyl-5-(5-methylpyrazin-2-yl)-4H-1,2,4-triazol-3-yl]sulfanyl}propyl)-1-[4-(trifluoromethyl)phenyl]-5-azaspiro[2.4]heptane]", "Ki": 1.91}]}, {"target": "T1, hD3 recombinant receptor (human dopamine type 3 receptor, CHO-hD3 membranes)", "assay": "not given", "conditions": "displacement of 0.3 nM [3H]-Spiperone; pKi accurate to about ±0.3-0.5", "values": [{"smiles": "Cc1ncoc1-c1nnc(SCCCN2CCC[C@]3(C[C@H]3c3ccc(C(F)(F)F)cc3)C2)n1C", "note": "(single isomer, unassigned) [Example 312, (1S,3R or 1R,3S)-5-(3-{[4-methyl-5-(4-methyl-1,3-oxazol-5-yl)-4H-1,2,4-triazol-3-yl]sulfanyl}propyl)-1-[4-(trifluoromethyl)phenyl]-5-azaspiro[2.5]octane]", "D3 pKi": 8.40}, {"smiles": "Cc1ncoc1-c1nnc(SCCCN2CC[C@]3(CC[C@H]3c3ccccc3)C2)n1C", "note": "(single isomer, unassigned) [Example 318, (1R,4S or 1S,4R or 1S,4S or 1R,4R)-6-(3-{[4-methyl-5-(4-methyl-1,3-oxazol-5-yl)-4H-1,2,4-triazol-3-yl]sulfanyl}propyl)-1-phenyl-6-azaspiro[3.4]octane]", "D3 pKi": 7.34}, {"smiles": "Cn1c(OCCCN2CC[C@]3(C[C@H]3c3ccc(C(F)(F)F)cc3)C2)nnc1C1CCOCC1", "note": "(single isomer, unassigned) [Example 304, (1S,3S or 1R,3R)-5-(3-{[4-methyl-5-(oxan-4-yl)-4H-1,2,4-triazol-3-yl]oxy}propyl)-1-[4-(trifluoromethyl)phenyl]-5-azaspiro[2.4]heptane]", "D3 pKi": 7.44}, {"smiles": "Cc1ncoc1-c1nnc(SCCCN2CCC[C@@]3(C[C@H]3c3ccc(C(F)(F)F)cc3)C2)n1C", "note": "(single isomer, unassigned) [Example 314, (1S,3S or 1R,3R)-5-(3-{[4-methyl-5-(4-methyl-1,3-oxazol-5-yl)-4H-1,2,4-triazol-3-yl]sulfanyl}propyl)-1-[4-(trifluoromethyl)phenyl]-5-azaspiro[2.5]octane]", "D3 pKi": 7.14}, {"smiles": "Cn1c(OCCCN2CC[C@@]3(C[C@@H]3c3ccc(C(F)(F)F)cc3)C2)nnc1C1CCOCC1", "note": "(single isomer, unassigned) [Example 305, (1R,3R or 1S,3S)-5-(3-{[4-methyl-5-(oxan-4-yl)-4H-1,2,4-triazol-3-yl]oxy}-propyl)-1-[4-(trifluoromethyl)phenyl]-5-azaspiro[2.4]heptane]", "D3 pKi": 7.86}]}]}
